This is an account of results in patent publication US7750036B2, “Carvedilol salts, corresponding compositions, methods of delivery and/or treatment” (SB Pharmco Puerto Rico Inc., priority 2004, dated 2010).

The data set is described as follows: Solubility in water of carvedilol free base and salts (shaken vials, UV-Vis).

With `COc1ccccc1OCCNCC(O)COc1cccc2[nH]c3ccccc3c12` (racemic) [Carvedilol], the “Aqueous Solubility” value (Table 11, 25° C., 1 hr) is recorded as 0.0098 mg of carvedilol free base/mL of solution and the “Aqueous Solubility” value (Table 13, 25° C., 24 hr) was 0.024 mg of Carvedilol free base/mL of solution.
